The values below come from PMC9319256, “Human Enzyme PADI4 Binds to the Nuclear Carrier Importin α3” (Cells, 2022).

The target of assay [1] is T1, Impα3 (Homo sapiens, UniProt O00629).
T1 construct: made in house
T1 sequence (O00629 1-521): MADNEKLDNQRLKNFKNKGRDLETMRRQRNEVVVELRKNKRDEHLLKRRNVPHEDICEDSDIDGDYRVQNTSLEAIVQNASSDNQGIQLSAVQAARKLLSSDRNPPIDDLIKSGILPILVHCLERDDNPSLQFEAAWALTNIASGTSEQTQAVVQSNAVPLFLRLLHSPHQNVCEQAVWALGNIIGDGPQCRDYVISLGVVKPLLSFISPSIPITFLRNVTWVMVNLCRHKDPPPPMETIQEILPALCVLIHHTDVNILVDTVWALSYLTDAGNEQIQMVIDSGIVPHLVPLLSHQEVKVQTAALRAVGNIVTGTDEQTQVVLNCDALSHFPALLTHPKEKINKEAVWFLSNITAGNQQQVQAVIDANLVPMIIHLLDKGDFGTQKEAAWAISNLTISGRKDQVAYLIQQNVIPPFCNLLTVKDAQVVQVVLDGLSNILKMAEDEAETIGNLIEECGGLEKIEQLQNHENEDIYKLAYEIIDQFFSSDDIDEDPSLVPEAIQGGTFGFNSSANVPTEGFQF
Kind of assay: Steady-state fluorescence, complex versus addition spectrum, Impα3. In kind it is binding. The conditions noted are these: 20 µM PADI4 or peptide, 2 µM Impα3; 50 mM sodium phosphate pH 7.0, 25 °C; excitation 280 or 295 nm; triplicates. As to the method:
Spectra were collected on a Cary Varian spectrofluorometer (Agilent, Santa Clara, CA, USA), interfaced with a Peltier unit. Following the standard protocols used in our laboratories, the samples were prepared the day before and left overnight at 5 °C; before experiments, samples were left for 1 h at 25 °C, where experiments were acquired. A 1 cm pathlength quartz cell (Hellma, Kruibeke, Belgium) was used. The concentration of PADI4 or NLS1/2-PADI4 peptides was 20 µM, and that of each importin species was 2 µM. Samples containing the corresponding isolated peptides, the isolated PADI4, the isolated corresponding importin species, and the corresponding mixtures (at the concentrations indicated above) were prepared. Experiments were performed with samples in 50 mM sodium phosphate buffer, pH 7.0. Fluorescence experiments were repeated in triplicates with newly prepared samples. Variations of results among the experiments were lower than 5%.
Polypeptide samples were excited either at 280 or 295 nm (although NLS2-PADI4 has only a single […]). The other experimental parameters used in the experiments have been described elsewhere. Appropriate blank corrections were made in all spectra.

The target of assay [2] is T1, Impα3. Nature of the assay: Isothermal titration calorimetry (ITC), Impα3. Type of assay: binding. The settings on record: for ΔG / n (binding stoichiometry or percentage of binding-competent protein) / ΔH (binding enthalpy): Impα3, pH 7.5, 25 °C. On the procedure:
(§1) Calorimetric titrations for testing the interaction of PADI4, as well as for the interaction of NLS1/2-PADI4 peptides, with both importins, Impα3 and ΔImpα3, were carried out in an Auto-iTC200 automated high-sensitivity calorimeter (MicroCal, Malvern-Panalytical, Malvern, UK). Experiments were performed in 20 mM Tris buffer (pH 7.5), 5 mM TCEP, 150 mM NaCl, and 5% glycerol at 25 °C. PADI4 or the peptide solution (100 μM) in the injection syringe was titrated into the importin solution (10 μM) in the calorimetric cell. The remaining experimental and processing details have been described previously. Due to the presence of glycerol in solution, background injection (included as an adjustable parameter in data fitting) was rather large. The data analysis was conducted in Origin 7.0 (OriginLab, Northampton, MA, USA) with user-defined fitting functions.

For assay [3], the system named is ΔImpα3. Nature of the assay: Isothermal titration calorimetry (ITC), ΔImpα3. Type of assay: binding, human. The settings on record: for Ka (association constant) / Kd: PADI4 or peptide (100 μM) titrated into ΔImpα3 (10 μM), 20 mM Tris pH 7.5, 5 mM TCEP, 150 mM NaCl, 5% glycerol, 25 °C; for Ka (association constant) / Kd / ΔH (binding enthalpy): 95% confidence interval in parentheses; for Kd: read-out: Kd (dissociation constant); for ΔG / ΔH (binding enthalpy): ΔImpα3, pH 7.5, 25 °C. On the procedure:
as §1
A general note: Isothermal titration calorimetry measures the heat released or taken up as one component is titrated into another.

For assay [4], the target named is T1, Impα3. Nature of the assay: Biolayer interferometry (BLI), Impα3. In kind it is binding. The settings on record: Impα3 immobilized, peptide 1–7 µM, 25 °C; for kon: pseudo-first-order plot. As to the method: (§2) The association (kon) and dissociation (koff) rate constants of the binding of NLS1/2-PADI4 peptides to Impα3 or ΔImpα3 were determined using a BLItz system (ForteBio, Pall, Barcelona, Spain). The buffer used in the experiments was that recommended by the manufacturer. […] The peptide concentrations were in the range from 1 to 7 µM during the association step. The general scheme of the protein association/dissociation reactions in the BLItz system for NLS1/2-PADI4 with Impα3 and ΔImpα3 immobilized on the biosensor was similar to that described previously.
(§3) Fittings of the sensorgrams was carried out using KaleidaGraph (Synergy software, Reading, PA, USA). The interferometry response during the association step, R(t) (measured in response units, RU), and the binding rate, dR(t)/dt, can be used to evaluate the kinetics of the formation of the Impα3/ΔImpα3–NLS1/2-PADI4 complex, according to (3) dR/dt=kon[NLS1/2PADI4](Rmax−R(t))−koffR(t), where Rmax is proportional to the total concentration of biosensor-bound importin species, and [NLS1/2PADI4] represents the concentration of the corresponding NLS1/2-PADI4 peptide.
(§4) In Equation (3), R(t) is given by (4) R(t)=Req−Reqe^(−kobs (t−t0)), where Req is the steady-state (or equilibrium) response obtained at infinite time, when dR(t)/dt = 0, and t0 = 180 s is the time at which the association step between biosensor-immobilized Impα3/ΔImpα3 and NLS1/2-PADI4 in the solution started. We fitted the experimentally obtained R(t) under any condition as (5) R(t)=Req−Reqe^(−kobs (t−t0))−Req′e^(−kobs2′ (t−t0)), since an F statistical analysis test of the kinetic constants obtained with a fitting to Equations (4) or (5) was always better in the latter, two-exponential case (at 95% confidence level). With Equation (5), we are assuming that the equilibrium response at infinite time (that is, Req) is reached with the fastest exponential.
(§5) The kinetic rate from the second exponential (with a total amplitude smaller than 5%, in all cases, and slower than the other phase) in Equation (5) remained constant at all the peptide concentrations explored.
(§6) The dissociation process was always fitted to a single exponential, with R(t) given by (7) R(t)=R1 e^(−koff(t−t0)), where t0 = 300 is the time at which the dissociation of the peptide from the biosensor-bound Impα3/ΔImpα3 started in our experimental setup, and R1 is the response level when dissociation starts.

In assay [5] the target is ΔImpα3. Nature of the assay: Biolayer interferometry (BLI), ΔImpα3. In kind it is binding, human. The conditions noted are these: peptide 1–7 µM, 25 °C; for Kd: His-tagged ΔImpα3 (0.3 µM) immobilized on His-tag biosensors, buffer recommended by manufacturer; for kon: pseudo-first-order plot; for kon / koff: ΔImpα3 immobilized. On the procedure:
as §2, §3, §4, §5, §6

[6] abbreviates: 95% confidence interval in parentheses.
[7] abbreviates: PADI4 or peptide (100 μM) titrated into Impα3 (10 μM), 20 mM Tris pH 7.5, 5 mM TCEP, 150 mM NaCl, 5% glycerol, 25 °C, 95% confidence interval in parentheses.

By Kd is commonly meant a measure of binding affinity in units of concentration. Broadly, the koff is the rate constant with which the complex falls apart. One may read the kon as the second-order rate constant of association. Regarding `CC[C@H](C)[C@H](NC(=O)[C@H](CCCCN)NC(=O)[C@H](CCC(N)=O)NC(=O)[C@H](CCC(N)=O)NC(=O)[C@H](CCCCN)NC(=O)[C@H](CCCCN)NC(=O)[C@H](CCCCN)NC(=O)[C@H](CCCCN)NC(=O)[C@@H](NC(=O)CNC(=O)[C@H](CCC(=O)O)NC(=O)[C@H](Cc1ccccc1)NC(=O)[C@H](CC(C)C)NC(=O)[C@H](CC(C)C)NC(=O)[C@H](C)NC(=O)[C@H](CCC(=O)O)NC(=O)CNC(=O)[C@H](Cc1c[nH]cn1)NC(=O)CNC(=O)[C@H](CCC(=O)O)NC(=O)[C@H](CC(N)=O)NC(=O)[C@H](CCC(N)=O)NC(=O)[C@H](CCC(N)=O)NC(=O)[C@H](CCC(=O)O)NC(=O)[C@H](CCC(N)=O)NC(=O)[C@H](Cc1ccccc1)NC(=O)[C@H](CC(C)C)NC(=O)[C@H](CCCCN)NC(=O)[C@H](Cc1ccc(O)cc1)NC(C)=O)[C@@H](C)CC)C(N)=O` [NLS2-PADI4], the “change in fluorescence spectrum of complex versus addition spectrum” value at Impα3 [1] is on record as “no large changes in the spectra”. For the same compound, the ΔG on Impα3 [2] is -6.3 kcal/mol; with ΔImpα3 [3], -7.3 kcal/mol. In addition, the “n (binding stoichiometry or percentage of binding-competent protein)” value at Impα3 [2] (setting [6]) is given as 1.08 (0.98, 1.20). Also, the “ΔH (binding enthalpy)” value was −35.7 (−39.8, −31.1) kcal/mol on Impα3 [2] (setting [6]) and −11.2 (−13.7, −9.8) kcal/mol in the assay with ΔImpα3 [3]. The “Ka (association constant)” value on Impα3 [2] (setting [7]) is reported as 0.43 (0.31, 0.57) 10^5 M^−1; in the assay on ΔImpα3 [3], 2.3 (1.5, 3.2) 10^5 M^−1. Moreover, the Kd was 23 µM on Impα3 [2] (PADI4 or peptide (100 μM) titrated into Impα3 (10 μM), 20 mM Tris pH 7.5, 5 mM TCEP, 150 mM NaCl, 5% glycerol, 25 °C, 95% confidence interval in parentheses, read-out: Kd (dissociation constant)); 4.3 µM at ΔImpα3 [3]; 12 ± 4 µM on ΔImpα3 [5]. Also, the off-rate constant (koff) was 0.32 ± 0.01 s⁻¹ at Impα3 [4] and 0.23 ± 0.01 s⁻¹ with ΔImpα3 [5]. The association rate constant (kon) at Impα3 [4] is 3000 ± 2000 M⁻¹ s⁻¹; in the assay on ΔImpα3 [5] it was 20000 ± 3000 M⁻¹ s⁻¹.
For the compound `CSCC[C@H](NC(=O)[C@@H](NC(=O)[C@H](CC(C)C)NC(=O)[C@@H](NC(=O)[C@@H](NC(=O)[C@H](CCC(=O)O)NC(=O)[C@@H](NC(=O)CNC(=O)[C@@H]1CCCN1C(=O)[C@H](CC(=O)O)NC(=O)[C@H](CC(C)C)NC(=O)[C@@H]1CCCN1C(=O)[C@H](Cc1c[nH]c2ccccc12)NC(=O)[C@@H](NC(=O)[C@H](CO)NC(=O)[C@H](CO)NC(=O)CNC(=O)[C@@H](NC(=O)[C@H](CO)NC(=O)[C@H](CCCCN)NC(=O)[C@H](CCCCN)NC(=O)[C@H](CCCCN)NC(=O)[C@H](C)NC(C)=O)[C@@H](C)O)[C@@H](C)O)C(C)C)C(C)C)[C@@H](C)O)[C@@H](C)O)C(=O)N[C@@H](CCCCN)C(=O)N[C@H](C(=O)N[C@@H](C)C(=O)N[C@@H](CO)C(N)=O)C(C)C` [NLS1-PADI4], the “change in fluorescence spectrum of complex versus addition spectrum” value at Impα3 [1] is reported as “large ones”. The same compound had a ΔG on Impα3 [2] of -7.3 kcal/mol. For the same compound, at Impα3 [2] (setting [6]), the “n (binding stoichiometry or percentage of binding-competent protein)” value was 1.24 (1.15, 1.37) and the “ΔH (binding enthalpy)” value was −21.3 (−25.3, −18.8) kcal/mol. Moreover, on Impα3 [2] (setting [7]), the “Ka (association constant)” value is recorded as 2.3 (1.6, 3.0) 10^5 M^−1. Moreover, in the assay on ΔImpα3 [3], the “Ka (association constant)” value is recorded as 6.5 (4.9, 8.3) 10^5 M^−1; the dissociation constant Kd stood at 1.5 µM; the ΔG was -7.9 kcal/mol; the “ΔH (binding enthalpy)” value is −8.7 (−9.6, −8.0) kcal/mol. Further, on Impα3 [4], the koff is 0.0685 ± 0.0007 s⁻¹ and the kon is 3700 ± 200 M⁻¹ s⁻¹. Besides, on ΔImpα3 [5], the Kd was 4 ± 1 µM, the kon turned out to be 11000 ± 2000 M⁻¹ s⁻¹ and the dissociation rate constant (koff) turned out to be 0.046 ± 0.005 s⁻¹.
